In patent US8846705B2, “Diaminopyrimidines as P2X3 and P2X2/3 antagonists” (Roche Palo Alto LLC, priority 2004, dated 2014):

Target: T1, rat P2X3 receptor (Rattus norvegicus, UniProt P49654)
T1 sequence (P49654 1-397): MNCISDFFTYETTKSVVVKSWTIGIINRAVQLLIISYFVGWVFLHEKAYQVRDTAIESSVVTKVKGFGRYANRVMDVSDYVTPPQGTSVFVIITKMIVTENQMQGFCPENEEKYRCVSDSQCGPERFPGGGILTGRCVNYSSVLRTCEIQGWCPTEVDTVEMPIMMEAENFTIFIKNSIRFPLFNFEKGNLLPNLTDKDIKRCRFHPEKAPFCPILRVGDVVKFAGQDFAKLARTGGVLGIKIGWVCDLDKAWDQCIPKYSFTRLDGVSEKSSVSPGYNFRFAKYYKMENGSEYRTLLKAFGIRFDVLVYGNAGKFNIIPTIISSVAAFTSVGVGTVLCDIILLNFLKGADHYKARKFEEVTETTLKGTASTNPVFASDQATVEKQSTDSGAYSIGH
Assay: cell-based

IC50	SMILES
> 10 µM	COc1cc(Cc2cnc(N)nc2N)c(C(C)(C)C)cc1OC [5-(2-tert-Butyl-4,5-dimethoxy-benzyl)-pyrimidine-2,4-diamine]
> 10 µM	CCCc1cc(OC)c(OC)cc1Cc1cnc(N)nc1N [5-(4,5-Dimethoxy-2-propyl-benzyl)-pyrimidine-2,4-diamine]
0.115 µM	COc1cc(Cc2cnc(N)nc2N)c(C(C)C)cc1OC [5-(2-Isopropyl-4,5-dimethoxy-benzyl)-pyrimidine-2,4-diamine]
